What was measured:
[1] = molecular target: T1, Protein kinase C epsilon type (Homo sapiens, UniProt Q02156); assay: Inhibition of Protein kinase C epsilon
T1 sequence (Q02156 whole entry): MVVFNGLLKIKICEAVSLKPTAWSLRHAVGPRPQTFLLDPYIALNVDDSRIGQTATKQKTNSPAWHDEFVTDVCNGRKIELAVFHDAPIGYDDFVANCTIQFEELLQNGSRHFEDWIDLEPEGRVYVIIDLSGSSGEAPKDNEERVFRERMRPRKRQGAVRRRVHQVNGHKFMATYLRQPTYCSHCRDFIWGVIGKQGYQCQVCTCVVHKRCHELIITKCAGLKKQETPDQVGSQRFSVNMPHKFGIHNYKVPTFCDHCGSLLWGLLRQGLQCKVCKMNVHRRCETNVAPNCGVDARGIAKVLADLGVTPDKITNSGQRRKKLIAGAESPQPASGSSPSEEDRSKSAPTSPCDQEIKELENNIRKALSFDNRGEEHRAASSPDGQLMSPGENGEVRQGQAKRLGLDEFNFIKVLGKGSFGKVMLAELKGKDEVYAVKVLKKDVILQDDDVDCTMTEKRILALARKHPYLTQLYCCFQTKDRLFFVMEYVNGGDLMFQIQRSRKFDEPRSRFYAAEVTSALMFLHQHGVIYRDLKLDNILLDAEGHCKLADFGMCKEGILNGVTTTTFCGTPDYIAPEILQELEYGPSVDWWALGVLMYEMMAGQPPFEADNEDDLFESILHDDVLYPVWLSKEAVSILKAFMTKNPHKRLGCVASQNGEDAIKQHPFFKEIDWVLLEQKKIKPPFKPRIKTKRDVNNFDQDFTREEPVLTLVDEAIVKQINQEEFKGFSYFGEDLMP

[2] = molecular target: cAMP-dependent protein kinase (PKA) (Homo sapiens, UniProt P22694+P17612+P22612); assay: Inhibition of cAMP-dependent protein kinase (PKA); format: protein assay

Row | SMILES | IC50 [1] [nM] | IC50 [2] [nM]
1 | O=C(N[C@@H]1CNCCCC1OC(=O)c1cc(O)c(C(=O)c2c(O)cccc2C(=O)O)c(O)c1)c1ccc(O)cc1 (some centres undefined) | 10 | 
2 | O=C(N[C@H]1CNCCCC1OC(=O)c1cc(O)c(C(=O)c2c(O)cccc2C(=O)O)c(O)c1)c1ccc(O)cc1 (some centres undefined) | < 1000 | 
3 | O=C(N[C@@H]1CCCC1OC(=O)c1cc(O)c(C(=O)c2c(O)cccc2C(=O)O)c(O)c1)c1ccc(O)cc1 (some centres undefined) |  | 30
4 | O=C(NC1CNCCCC1OC(=O)c1cc(O)c(C(=O)c2c(O)cccc2C(=O)O)c(O)c1)c1ccc(O)cc1 (racemic) | 340 | 
